Source: patent US7781642B2, “Animal model having a chimeric human liver and susceptible to human hepatitis C virus infection” (KMT Hepatech, Inc., priority 2000, dated 2010)

Columns and labels:
HCV (genotype 3) = experiment: Interferon alpha-2b treatment of HCV-infected Scid/uPA mice with chimeric human liver; serum HCV titre by RT-PCR; type: in vivo, mouse; conditions: all 3 treated animals (135 or 1350 IU/g/d)
Excerpt: Animals: Human hepatocytes were isolated from pieces of human liver tissue obtained from the operating theater using continuous perfusion with collagenase (Liberase HI, Boehringer Mannheim). Homozygote SCID/uPA mice were transplanted with 0.5×10^6 to 1.0×10^6 fresh human hepatocytes via intrasplenic injection at 10-15 days of age. At 4 weeks post-transplant blood was drawn and assayed for human albumin (HA) concentration using a quantitative dot blot assay.
HCV infection: At 8 weeks post-transplant, mice were injected intraperitoneally with 50 μl of serum from a HCV positive liver transplant patient, genotype 3. The serum was stored at −70 degrees Celsius and thawed out at time of inoculation. […] All HCV quantitation was performed by the Provincial Laboratory at the University of Alberta Hospital using the Cobas Amplicor HCV Monitor version 2.0 (Roche Diagnostics).
Interferon administration: The mice were divided into 3 treatment groups: group 1=controls (n=5), group 2=interferon-α2b (IFN) 135 IU/g/d (n=1), group 3=1350 IU/g/d (n=2). Treatment was started 2 weeks after HCV inoculation. The IFN (or an equivalent volume of normal saline) was injected IM for 15 consecutive days. Blood was drawn to assay for HCV RNA levels and graft function at the start of treatment, at the end of treatment, and 2 and 4 weeks after treatment had stopped. […]

HCV = conditions: anti-HCV therapy in humans; cited from earlier work

In the case of interferon alpha-2b [IFN], the “Course of viral titres in treated animals” value (HCV (genotype 3)) is reported as “decreasing viral titres”.
For interferon-α, the “Time of therapy after which the effect is detectable” value (HCV) is given as “about 12 weeks”.
